Source: ChEMBL document CHEMBL2380222, “Arylsulfonamide pyrimidines as VLA-4 antagonists” (Bioorg Med Chem Lett, 2013)
pIC50: −log10 of the molar value.

Target: T1, Integrin alpha-4/beta-7 (Homo sapiens, UniProt P13612+P26010)
T1 sequence (P13612 whole entry): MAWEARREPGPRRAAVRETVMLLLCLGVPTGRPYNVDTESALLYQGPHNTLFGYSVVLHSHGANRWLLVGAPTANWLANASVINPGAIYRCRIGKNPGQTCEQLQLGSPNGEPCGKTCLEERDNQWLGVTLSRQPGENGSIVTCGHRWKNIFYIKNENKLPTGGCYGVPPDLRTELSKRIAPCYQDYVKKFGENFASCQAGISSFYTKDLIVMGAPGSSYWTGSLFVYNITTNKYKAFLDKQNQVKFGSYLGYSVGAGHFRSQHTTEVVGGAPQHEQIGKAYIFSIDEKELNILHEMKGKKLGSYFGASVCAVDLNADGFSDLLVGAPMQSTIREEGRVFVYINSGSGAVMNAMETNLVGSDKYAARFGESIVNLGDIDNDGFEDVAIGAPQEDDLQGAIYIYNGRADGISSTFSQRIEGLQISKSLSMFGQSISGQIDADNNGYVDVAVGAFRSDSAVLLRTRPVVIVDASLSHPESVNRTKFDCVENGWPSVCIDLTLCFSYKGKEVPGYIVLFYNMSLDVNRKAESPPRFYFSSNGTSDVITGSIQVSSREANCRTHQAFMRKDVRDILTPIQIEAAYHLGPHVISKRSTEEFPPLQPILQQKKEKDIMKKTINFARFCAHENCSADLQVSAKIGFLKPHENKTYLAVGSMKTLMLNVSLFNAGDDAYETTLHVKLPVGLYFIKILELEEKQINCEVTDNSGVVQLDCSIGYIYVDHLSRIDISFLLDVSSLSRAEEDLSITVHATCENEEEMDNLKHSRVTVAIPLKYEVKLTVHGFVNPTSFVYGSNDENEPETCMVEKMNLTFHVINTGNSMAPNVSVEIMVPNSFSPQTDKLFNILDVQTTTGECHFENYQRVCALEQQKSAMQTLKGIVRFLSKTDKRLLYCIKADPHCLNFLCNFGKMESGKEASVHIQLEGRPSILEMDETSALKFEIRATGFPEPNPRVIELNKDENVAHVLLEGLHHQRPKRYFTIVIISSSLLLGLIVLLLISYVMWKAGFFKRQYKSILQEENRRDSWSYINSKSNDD
T1 sequence (P26010 whole entry): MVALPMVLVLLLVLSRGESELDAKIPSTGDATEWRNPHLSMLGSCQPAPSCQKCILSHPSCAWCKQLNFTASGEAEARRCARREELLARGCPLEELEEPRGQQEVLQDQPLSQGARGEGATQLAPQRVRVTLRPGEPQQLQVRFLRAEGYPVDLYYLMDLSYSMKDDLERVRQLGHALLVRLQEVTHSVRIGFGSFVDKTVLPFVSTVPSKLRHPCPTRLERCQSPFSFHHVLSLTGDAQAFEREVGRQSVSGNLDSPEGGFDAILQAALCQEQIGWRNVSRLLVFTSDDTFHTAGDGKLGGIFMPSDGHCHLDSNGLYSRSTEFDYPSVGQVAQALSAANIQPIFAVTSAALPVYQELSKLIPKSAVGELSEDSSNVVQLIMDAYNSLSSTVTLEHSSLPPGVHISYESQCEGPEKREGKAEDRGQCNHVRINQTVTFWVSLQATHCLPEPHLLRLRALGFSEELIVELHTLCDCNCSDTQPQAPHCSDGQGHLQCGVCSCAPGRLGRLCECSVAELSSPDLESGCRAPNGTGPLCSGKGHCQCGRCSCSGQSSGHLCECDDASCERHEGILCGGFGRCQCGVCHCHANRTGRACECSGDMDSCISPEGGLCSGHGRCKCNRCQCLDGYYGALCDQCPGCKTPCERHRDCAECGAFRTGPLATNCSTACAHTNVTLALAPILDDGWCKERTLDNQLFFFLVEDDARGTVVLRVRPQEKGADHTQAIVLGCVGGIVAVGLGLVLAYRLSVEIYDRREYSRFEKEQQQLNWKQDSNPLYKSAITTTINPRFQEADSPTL
Assay: Inhibition of integrin alpha4beta7 (unknown origin) binding to MadCAM in human 8866 cells after 30 mins by fibronectin mediated cell adhesion assay
Assay type: cell-based

- pIC50: 5.14
SMILES: C#CCN(c1cnc(N(CC)CC)nc1N[C@@H](Cc1ccc(OC(=O)N2CCCC2)cc1)C(=O)O)S(=O)(=O)c1ccc(F)cc1
